{"sequences": {"note": "Chains of the proteins cited; added tags and fusions are not shown. Lines headed by an entry give the natural chain unless they say otherwise; changes in a name come on top.", "UniProt P54132": "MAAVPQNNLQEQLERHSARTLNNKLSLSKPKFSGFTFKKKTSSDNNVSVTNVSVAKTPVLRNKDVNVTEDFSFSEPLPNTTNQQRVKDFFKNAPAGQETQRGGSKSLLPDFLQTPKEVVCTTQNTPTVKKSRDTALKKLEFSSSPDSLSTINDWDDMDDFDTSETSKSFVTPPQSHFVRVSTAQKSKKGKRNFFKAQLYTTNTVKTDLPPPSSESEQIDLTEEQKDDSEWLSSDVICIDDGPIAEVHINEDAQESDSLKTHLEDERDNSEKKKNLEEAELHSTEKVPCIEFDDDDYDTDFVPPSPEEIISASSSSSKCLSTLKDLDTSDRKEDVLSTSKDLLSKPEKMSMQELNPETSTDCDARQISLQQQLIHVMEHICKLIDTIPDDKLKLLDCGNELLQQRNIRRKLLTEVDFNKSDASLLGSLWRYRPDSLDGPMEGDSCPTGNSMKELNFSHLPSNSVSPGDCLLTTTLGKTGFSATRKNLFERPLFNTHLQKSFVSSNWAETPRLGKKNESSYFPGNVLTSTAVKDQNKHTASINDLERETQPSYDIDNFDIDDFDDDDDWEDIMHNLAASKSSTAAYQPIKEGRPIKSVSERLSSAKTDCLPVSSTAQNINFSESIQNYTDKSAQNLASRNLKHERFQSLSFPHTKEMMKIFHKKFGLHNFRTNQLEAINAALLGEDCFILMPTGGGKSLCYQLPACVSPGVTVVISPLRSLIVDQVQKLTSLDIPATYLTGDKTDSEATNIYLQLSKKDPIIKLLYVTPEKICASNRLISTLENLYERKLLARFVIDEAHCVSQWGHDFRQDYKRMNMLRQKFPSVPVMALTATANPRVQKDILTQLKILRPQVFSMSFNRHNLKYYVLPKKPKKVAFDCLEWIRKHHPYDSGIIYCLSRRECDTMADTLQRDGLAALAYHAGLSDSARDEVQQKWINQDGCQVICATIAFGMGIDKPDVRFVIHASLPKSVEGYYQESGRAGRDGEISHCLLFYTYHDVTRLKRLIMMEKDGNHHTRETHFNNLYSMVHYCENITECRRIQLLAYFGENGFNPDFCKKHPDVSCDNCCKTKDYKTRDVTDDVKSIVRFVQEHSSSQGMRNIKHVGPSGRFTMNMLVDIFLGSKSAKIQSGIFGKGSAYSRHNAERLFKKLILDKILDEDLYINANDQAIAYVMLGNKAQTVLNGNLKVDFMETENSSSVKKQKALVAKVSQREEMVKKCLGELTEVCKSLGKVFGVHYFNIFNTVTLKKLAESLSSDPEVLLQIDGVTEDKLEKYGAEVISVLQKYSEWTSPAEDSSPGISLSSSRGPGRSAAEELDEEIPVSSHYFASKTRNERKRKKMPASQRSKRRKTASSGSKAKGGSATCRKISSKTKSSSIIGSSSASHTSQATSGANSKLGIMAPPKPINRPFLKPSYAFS"}, "source": "PubChem BioAssay AID2528", "about": "(National Center for Advancing Translational Sciences (NCATS), 2010)", "note": "Values joined by “and” are separate entries in the source; they are usually repeats but may differ in a detail not shown here. Identical values can stand only once. The entries are a selection whose mix differs from that of the whole data set. Active and inactive are the calls of the source. Calls come from the whole dose curve; as a rule, active = well fitted inhibition curve with a large enough effect; inconclusive = small, poorly fitted or top-dose-only effect; inactive = flat fitted curve, though single readings scatter."}
{"biological_target": "RecQ-like DNA helicase BLM (Homo sapiens) (UniProt P54132)", "test": "qHTS Assay for Inhibitors of Bloom's syndrome helicase (BLM);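 note: plate controls were vehicle for no effect and no enzyme for full effect; nearly all actives have a fitted effect of over 35% in size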", "conditions": "recombinant BLM DNA unwinding, fluorescence dequenching; at 56.1 µM (top of the series) unless noted"}
{"smiles": "CC(=O)N1C2C3N(C(C)=O)C1C1N(C(C)=O)C(C(N1C(C)=O)N3C(C)=O)N2C(C)=O", "activity change, negative = inhibition": "inactive: -1.69%"}
{"smiles": "O=[N+]([O-])c1cccc2n[nH]nc12", "activity change, negative = inhibition": "inactive: -2.07%"}
{"smiles": "Cc1ccc(NP(=O)(Oc2ccccc2)Oc2ccccc2)nc1", "activity change, negative = inhibition": "inactive: -0.528%"}
{"smiles": "O=[N+]([O-])c1cc([N+](=O)[O-])c(CCNc2ccccc2)c([N+](=O)[O-])c1", "activity change, negative = inhibition": "inactive: -14.5%"}
{"smiles": "CCc1nc2c(n1)c1c(non1O)c1c2no[n+]1[O-]", "activity change, negative = inhibition": "inactive: -1.86%"}
{"smiles": "COc1ccc(C2=NCC(CBr)S2)cc1", "note": "(stereo not drawn)", "activity change, negative = inhibition": "inactive: 0.789%"}
{"smiles": "CC(C)=N/N=C(\\N)N[N+](=O)[O-]", "activity change, negative = inhibition": "inactive: 2.09%"}
{"smiles": "CN(C)C(=O)OCCc1n(C)cc[n+]1C", "activity change, negative = inhibition": "inactive: 1.24%"}
{"smiles": "CC(=O)C1=CCCC2CCC1N2", "note": "(stereo not drawn)", "activity change, negative = inhibition": "inactive: 0.914%"}
{"smiles": "CC1CCN(C(=O)Oc2c(Cl)cc(Cl)c3cccnc23)CC1", "activity change, negative = inhibition": "inactive: -5.73%"}
{"smiles": "Nc1ccc([As](=O)(O)c2ccc(N)cc2)cc1", "activity change, negative = inhibition": "inactive: -6.97%"}
{"smiles": "CCN(/C(=N/P(=O)(N1CCOCC1)N1CCOCC1)N1CCOCC1)c1ccc(OC)cc1", "activity change, negative = inhibition": "inactive: 0.747%"}
{"smiles": "O=C(Nc1cc([As](=O)(O)O)ccc1O)c1ccccc1", "activity change, negative = inhibition": "inactive: -3.15%"}
{"smiles": "O=[N+]([O-])c1cccc(NC2=NCC(CBr)S2)c1", "note": "(stereo not drawn)", "activity change, negative = inhibition": "inactive: -4.49%"}
{"smiles": "O=C(O)CNc1ccc([As](=O)(O)O)cc1", "activity change, negative = inhibition": "inactive: -2.09%"}
{"smiles": "CC(C)(C)C(=O)NC(Sc1ccncn1)C(Cl)(Cl)Cl", "note": "(stereo not drawn)", "activity change, negative = inhibition": "inactive: -2.72%"}
{"smiles": "O=[N+]([O-])c1ncn(CCn2ncnc2[N+](=O)[O-])n1", "activity change, negative = inhibition": "inactive: 1.17%"}
{"smiles": "Cc1cc(SC(NC(=O)c2ccc(F)cc2)C(Cl)(Cl)Cl)ncn1", "note": "(stereo not drawn)", "activity change, negative = inhibition": "inactive: 1.97%"}
{"smiles": "CCOP(=O)(Nc1ccccc1)OCC", "activity change, negative = inhibition": "inactive: -3.12% and inactive: -5.16%"}
{"smiles": "CN(C(=O)Cc1ccc(Cl)c(Cl)c1)[C@H]1CCCC[C@@H]1N1CCCC1", "activity change, negative = inhibition": "inactive: 2.53% [middle of 4 runs]"}
{"smiles": "Cc1ccc(NP(=O)(Oc2ccccc2F)Oc2ccccc2F)nc1", "activity change, negative = inhibition": "inactive: 0.118%"}
{"smiles": "CC(=O)Nc1ccc([As](=O)(O)O)cc1", "activity change, negative = inhibition": "inactive: -1.79%"}
{"smiles": "O=C(O)c1ccccc1[As](=O)(O)O", "activity change, negative = inhibition": "inactive: -0.342%"}
{"smiles": "O=P(Nc1nc2ccc(Cl)cc2s1)(c1ccccc1)c1ccccc1", "activity change, negative = inhibition": "inactive: -8.75%"}
{"smiles": "CCN(N=Nc1nonc1N)c1nonc1N", "activity change, negative = inhibition": "inactive: -9.87%"}
{"smiles": "Nc1cccc2ccc([As](=O)(O)O)cc12", "activity change, negative = inhibition": "inactive: -7.47%"}
{"smiles": "O=[N+]([O-])c1cc([N+](=O)[O-])c(CCN2CCOCC2)c([N+](=O)[O-])c1", "activity change, negative = inhibition": "inactive: -19.2%"}
{"smiles": "COc1ccccc1OP(=O)(Nc1ccc(C)cn1)Oc1ccccc1OC", "activity change, negative = inhibition": "inactive: -3.49%"}
{"smiles": "Cc1ccc(OP(=O)(Nc2nccs2)Oc2ccc(C)cc2)cc1", "activity change, negative = inhibition": "inactive: -3.21%"}
{"smiles": "CN1CCCC(OC(=O)C(c2ccccc2)c2ccccc2)C1", "note": "(stereo not drawn)", "activity change, negative = inhibition": "inactive: 2.94%"}
{"smiles": "Clc1ccc(Cl)c(NC2=NCC(CBr)S2)c1", "note": "(stereo not drawn)", "activity change, negative = inhibition": "inactive: -18.6%"}
{"smiles": "NC(=O)c1cc([N+](=O)[O-])cc([N+](=O)[O-])c1N", "activity change, negative = inhibition": "inactive: -11.1%"}
{"smiles": "Cc1ccc(N/C(=N/P(=O)(N2CCOCC2)N2CCOCC2)N2CCOCC2)cc1", "activity change, negative = inhibition": "inactive: -0.565%"}
{"smiles": "Nc1cc(N)c2nonc2c1[N+](=O)[O-]", "activity change, negative = inhibition": "inactive: -4.41%"}
{"smiles": "CC(C)CC(=O)NC(Sc1ccc(Cl)cc1)C(Cl)(Cl)Cl", "note": "(stereo not drawn)", "activity change, negative = inhibition": "inactive: -4.56%"}
{"smiles": "Oc1ccccc1CNc1ccccn1", "activity change, negative = inhibition": "inactive: 1.04%"}
{"smiles": "O=C(NC(Sc1ccncn1)C(Cl)(Cl)Cl)c1ccccc1", "note": "(stereo not drawn)", "activity change, negative = inhibition": "inactive: 1.47%"}
{"smiles": "Cc1c2non([O-])c-2c(C)[n+](=O)[n+]1[O-]", "activity change, negative = inhibition": "inactive: -6.08%"}
{"smiles": "CC(C)(C)C(=O)NC(Sc1ccccc1)C(Cl)(Cl)Cl", "note": "(stereo not drawn)", "activity change, negative = inhibition": "inactive: -3.42%"}
{"smiles": "O=P1(Nc2nc3ccc(Cl)cc3s2)COc2ccccc2O1", "note": "(stereo not drawn)", "activity change, negative = inhibition": "inactive: 0.605%"}
{"smiles": "CCOc1ccc(C2=NCC(CBr)S2)cc1", "note": "(stereo not drawn)", "activity change, negative = inhibition": "inactive: -3.2%"}
{"smiles": "CC(=O)Nc1ccc([As](=O)(O)O)c(O)c1", "activity change, negative = inhibition": "inactive: -8.75%"}
{"smiles": "CC(=O)Nc1ccc(Oc2c([N+](=O)[O-])cc([N+](=O)[O-])cc2[N+](=O)[O-])cc1", "activity change, negative = inhibition": "inactive: -11.8%"}
{"smiles": "CC(=O)c1ccc(N2CC2c2ccncc2)cc1", "note": "(stereo not drawn)", "activity change, negative = inhibition": "inactive: 0.231%"}
{"smiles": "C[C@H]1OP(=O)(Oc2ccccc2)C[C@@H]2O[C@@H]21", "note": "(stereo partly drawn)", "activity change, negative = inhibition": "inactive: 0.981%"}
{"smiles": "C[C@@H]1C=CCP(=O)(Oc2ccccc2)O1", "note": "(stereo partly drawn)", "activity change, negative = inhibition": "inactive: 2.37%"}
{"smiles": "O=C(NC1CCS(=O)(=O)C1)NP(=S)(Oc1ccccc1)Oc1ccccc1", "note": "(stereo not drawn)", "activity change, negative = inhibition": "inactive: -3.71%"}
{"smiles": "CCNC(=S)/N=C(\\N)N[N+](=O)[O-]", "activity change, negative = inhibition": "inactive: -3.56%"}
{"smiles": "c1ccc(-c2nn[nH]n2)c(-c2nn[nH]n2)c1", "activity change, negative = inhibition": "inactive: -6.87%"}
{"smiles": "CCOC(=O)NC(Sc1ccccc1)C(Cl)(Cl)Cl", "note": "(stereo not drawn)", "activity change, negative = inhibition": "inactive: -3.96%"}
{"smiles": "Cc1ccc(NP(=O)(Oc2cccc(C)c2)Oc2cccc(C)c2)nc1", "activity change, negative = inhibition": "inactive: -1.46%"}
{"smiles": "Cc1ccccc1OP(=O)(Nc1ccccn1)Oc1ccccc1C", "activity change, negative = inhibition": "inactive: -2.37%"}
{"smiles": "O=c1c2cc([N+](=O)[O-])ccc2[nH]c2c([N+](=O)[O-])cc([N+](=O)[O-])cc12", "activity change, negative = inhibition": "inactive: -1.62%"}
{"smiles": "CN(C)C(=O)Oc1noc2ccccc12", "activity change, negative = inhibition": "inactive: -2.78%"}
{"smiles": "COC(=O)c1cc2c(s1)N=C(c1ccccc1)N(C)P2(=O)N1CCOCC1", "note": "(stereo not drawn)", "activity change, negative = inhibition": "inactive: -3.98%"}
{"smiles": "Cc1ccc(OP(=O)(Nc2ccccn2)Oc2ccc(C)cc2)cc1", "activity change, negative = inhibition": "inactive: -7.54%"}
{"smiles": "CC(=O)NC(SC(=S)N(CC(C)C)CC(C)C)C(Cl)(Cl)Cl", "note": "(stereo not drawn)", "activity change, negative = inhibition": "inactive: 0.0335%"}
{"smiles": "O=C(OC1CN2CCC1CC2)c1ccccc1", "note": "(stereo not drawn)", "activity change, negative = inhibition": "inactive: 2.01% and inactive: 2.99%"}
{"smiles": "CCC(=O)N1C2C3N(C(=O)CC)C1C1N(C(=O)CC)C(C(N1C(=O)CC)N3C(=O)CC)N2C(=O)CC", "activity change, negative = inhibition": "inactive: -0.659%"}
{"smiles": "O=P(Nc1nc2ccccc2s1)(c1ccccc1)c1ccccc1", "activity change, negative = inhibition": "inactive: -2.9%"}
{"smiles": "C[C@H]1OP(=O)(Oc2ccccc2)[C@H](O)[C@H](O)[C@H]1N=[N+]=[N-]", "note": "(stereo partly drawn)", "activity change, negative = inhibition": "inactive: -0.663%"}
{"smiles": "CN(C)C1(CNC(=O)c2ccc(Cl)c(S(N)(=O)=O)c2)CCCCC1", "activity change, negative = inhibition": "inactive: -1.99%"}
{"smiles": "O=P(Nc1ccccn1)(c1ccc(Br)cc1)c1ccc(Br)cc1", "activity change, negative = inhibition": "inactive: -10.3%"}
